Experimental data reported in paper PMC3190643 (2011).

By UniProt entry, the sequences of proteins in these tests, tags left out. Residues count along the entry.
UniProt P14780, 107-444 limits assumed: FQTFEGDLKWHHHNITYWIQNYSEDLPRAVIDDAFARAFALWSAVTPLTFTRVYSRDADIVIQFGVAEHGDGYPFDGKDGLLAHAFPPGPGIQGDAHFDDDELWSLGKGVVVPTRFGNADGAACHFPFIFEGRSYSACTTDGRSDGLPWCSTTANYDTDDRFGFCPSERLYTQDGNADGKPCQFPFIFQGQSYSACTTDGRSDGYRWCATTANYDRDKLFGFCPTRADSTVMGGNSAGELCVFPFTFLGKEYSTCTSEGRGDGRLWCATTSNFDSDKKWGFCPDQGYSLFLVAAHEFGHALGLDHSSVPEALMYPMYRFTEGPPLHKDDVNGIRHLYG

Legend:
[1] = molecular target: catalytic domain of MMP-14 (Homo sapiens, UniProt P50281); conditions: read-out: Ki, MMP-14 catalytic domain
[2] = molecular target: T1, Human recombinant active MMP-7 (Homo sapiens, UniProt P09237); conditions: read-out: Ki, MMP-7; linear competitive
T1 sequence (P09237 95-267): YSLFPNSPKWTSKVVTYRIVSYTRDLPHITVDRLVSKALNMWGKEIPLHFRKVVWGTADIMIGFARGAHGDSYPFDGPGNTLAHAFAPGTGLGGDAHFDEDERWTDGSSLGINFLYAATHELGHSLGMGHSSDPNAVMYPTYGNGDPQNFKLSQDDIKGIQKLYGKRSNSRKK

[3] = molecular target: catalytic domain of human recombinant MMP-9 (Homo sapiens, UniProt P14780); conditions: read-out: Ki, MMP-9 catalytic domain; koff/kon
[4] = molecular target: T2, Human recombinant active MMP-2 (Homo sapiens, UniProt P08253); conditions: read-out: Ki, MMP-2; koff/kon
T2 sequence (P08253 110-660): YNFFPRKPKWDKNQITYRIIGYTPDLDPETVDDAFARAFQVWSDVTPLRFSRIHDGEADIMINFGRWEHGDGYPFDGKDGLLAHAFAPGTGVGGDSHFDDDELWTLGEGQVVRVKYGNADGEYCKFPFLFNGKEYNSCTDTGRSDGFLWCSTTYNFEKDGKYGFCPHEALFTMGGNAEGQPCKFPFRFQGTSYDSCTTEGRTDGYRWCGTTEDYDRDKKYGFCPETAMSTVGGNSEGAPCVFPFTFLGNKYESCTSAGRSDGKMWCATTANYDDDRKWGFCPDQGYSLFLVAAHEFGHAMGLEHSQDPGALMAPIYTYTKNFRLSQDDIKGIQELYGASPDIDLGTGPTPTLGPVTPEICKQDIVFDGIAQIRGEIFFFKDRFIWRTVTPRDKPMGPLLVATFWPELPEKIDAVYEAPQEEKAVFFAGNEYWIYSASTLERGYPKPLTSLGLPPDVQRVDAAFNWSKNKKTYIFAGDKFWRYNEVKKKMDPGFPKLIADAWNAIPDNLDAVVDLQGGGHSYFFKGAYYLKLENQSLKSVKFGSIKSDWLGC

Question: `N=C(N)NCCC[C@H](N)C(=O)Nc1ccc(Oc2ccc(S(=O)(=O)CC3CS3)cc2)cc1` (stereo partly shown) [Compound 5d] was tested. Which Ki [1] did it give?
Answer: 28.9 ± 2.3 µM

Question: What about the Ki [2] of the same compound?
Answer: 160 ± 14 µM

Question: Which results are given for `N=C(N)NCCC[C@H](NC(=O)[C@@H](N)CCCNC(=N)N)C(=O)Nc1ccc(Oc2ccc(S(=O)(=O)CC3CS3)cc2)cc1` (stereo partly shown) [Compound 5e]?
Answer: Ki [3]: 18.7 ± 5.6 µM; Ki [4]: 0.42 ± 0.15 µM
